From patent publication US12428456B2, “Peptide directed protein knockdown” (University of British Columbia, priority 2012, dated 2025)

Amino acid sequences for entries named in this document (tags omitted).
UniProt P31016, whole entry: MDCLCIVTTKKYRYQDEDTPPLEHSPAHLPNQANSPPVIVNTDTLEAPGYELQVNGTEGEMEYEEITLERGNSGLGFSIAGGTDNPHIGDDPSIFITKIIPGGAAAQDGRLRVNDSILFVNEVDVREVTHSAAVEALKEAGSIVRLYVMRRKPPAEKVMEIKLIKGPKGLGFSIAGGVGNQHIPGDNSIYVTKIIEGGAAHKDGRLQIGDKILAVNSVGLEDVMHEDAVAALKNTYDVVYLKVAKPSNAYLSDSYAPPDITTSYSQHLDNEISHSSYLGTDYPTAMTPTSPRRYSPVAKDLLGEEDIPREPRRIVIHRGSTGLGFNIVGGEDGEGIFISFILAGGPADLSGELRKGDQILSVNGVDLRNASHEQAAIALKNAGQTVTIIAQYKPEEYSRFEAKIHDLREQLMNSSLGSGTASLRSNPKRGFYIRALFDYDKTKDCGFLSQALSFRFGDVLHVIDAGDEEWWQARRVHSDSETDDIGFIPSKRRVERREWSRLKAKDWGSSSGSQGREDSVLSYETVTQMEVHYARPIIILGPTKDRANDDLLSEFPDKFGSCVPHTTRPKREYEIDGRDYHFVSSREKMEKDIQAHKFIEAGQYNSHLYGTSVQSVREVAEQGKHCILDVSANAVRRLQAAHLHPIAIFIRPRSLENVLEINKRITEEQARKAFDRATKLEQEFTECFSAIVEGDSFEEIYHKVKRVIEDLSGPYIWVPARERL

Biological target: T1, PSD95 (Rattus norvegicus, UniProt P31016)
T1 construct: endogenous in cells; host or cells: primary rat neurons
Assay: Degradation of endogenous PSD95 in cultured neurons (immunoblot)
Assay type: cell-based
Conditions: for effect on endogenous PSD95 level: 25 μM bath applied
Method: Primary culture of cortical neurons. Dissociated cultures of rat cortical neurons were prepared from Sprague Dawley rat embryos collected from euthanized mothers 18 days after fertilization as previously described^35. Briefly, hippocampi and cerebral cortices were extracted from embryos and incubated for 30 min in 0.25% trypsin-EDTA. Digested tissues were dissociated by trituration and plated on poly-D-lysine-coated (Sigma, P7280) plates. Plating medium consisted of Neurobasal Media (Invitrogen, 21103-049) supplemented with B27 (Invitrogen, 17504044), glutamic acid (Sigma, G8415) and GlutaMax (Invitrogen, 35050-061). After 2 days, 2/3 of the media was replaced with fresh Neurobasal feeding media consisting of Neurobasal Media, B27 and GlutaMax. Cultures were maintained at 37° C. in a humidified 5% CO2 atmosphere. Mature neurons (14-18 days in vitro (DIV)) were used for experiments.
Immunoblotting. Immunoblotting assays were carried out as previously described^36. Briefly, proteins were extracted from neurons using a lysis buffer composed of 150 mM NaCl, 50 mM Tris, pH 7.4, 0.1% SDS, 1% NP-40, 0.5% sodium deoxycholate, 1 mM EDTA, 1 mM Na3VO4, and proteinase inhibitor mixture (Thermo Fisher, PI78442). Samples were separated on 10% SDS-PAGE gels, transferred to polyvinylidene difluoride (PVDF) membrane, and immunoblotted with respective antibodies. Blots were enhanced with chemiluminescence detection reagent kit (Fisher, 32106) and visualized with Bio-Rad imager and Quantity One software. Signal intensities from each band was quantified with Bio-Rad Image Lab software, and the bands were analyzed relative to their controls from the same membrane and experiment.

YGRKKRRQRRRKLSSIESDV [TAT-NR2B9c, reference compound]
effect on endogenous PSD95 level: but not its control TAT-NR2B9c
effect on endogenous PSD95 level (listed as Tat-NR2B9c): but not Tat-NR2B9c
effect of 3-methyladenine on PSD95 reduction (+3-MA): failed to affect
